Laboratory results reported in patent US6333428A, “6-fluorobicyclo[3.1.0]hexane derivatives” (Taisho Pharmaceutical Co., Ltd., priority 1998, dated 2001).

Sequences of proteins named here, by UniProt entry; tags and fusion partners are left off. Residues count along the entry.
UniProt P31421, 19-872: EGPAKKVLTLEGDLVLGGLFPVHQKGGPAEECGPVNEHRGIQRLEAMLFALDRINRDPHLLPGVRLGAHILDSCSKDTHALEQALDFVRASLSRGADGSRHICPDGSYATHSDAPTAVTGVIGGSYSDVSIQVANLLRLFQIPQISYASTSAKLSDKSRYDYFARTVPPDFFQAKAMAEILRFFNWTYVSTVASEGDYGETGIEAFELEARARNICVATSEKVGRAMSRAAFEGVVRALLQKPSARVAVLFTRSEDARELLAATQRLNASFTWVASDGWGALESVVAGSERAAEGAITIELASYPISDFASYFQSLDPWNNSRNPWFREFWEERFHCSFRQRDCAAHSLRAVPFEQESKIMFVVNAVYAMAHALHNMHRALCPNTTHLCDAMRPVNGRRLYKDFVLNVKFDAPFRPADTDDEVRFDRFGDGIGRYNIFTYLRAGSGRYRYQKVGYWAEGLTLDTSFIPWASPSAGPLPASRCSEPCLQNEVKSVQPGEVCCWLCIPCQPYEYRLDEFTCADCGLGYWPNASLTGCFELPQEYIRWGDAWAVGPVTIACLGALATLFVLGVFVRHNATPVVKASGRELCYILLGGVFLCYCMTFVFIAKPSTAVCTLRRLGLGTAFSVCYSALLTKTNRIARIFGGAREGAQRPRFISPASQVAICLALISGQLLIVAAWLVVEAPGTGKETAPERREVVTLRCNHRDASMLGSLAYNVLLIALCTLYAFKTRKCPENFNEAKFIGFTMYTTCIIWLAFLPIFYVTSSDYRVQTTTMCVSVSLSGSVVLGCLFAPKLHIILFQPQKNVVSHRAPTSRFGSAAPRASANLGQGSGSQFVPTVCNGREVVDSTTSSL

Target: T1, metabotropic glutamate receptors mG1uR2 (Rattus norvegicus, UniProt P31421)
T1 construct: expressed in transfected cells
Test: Effect of Test Compounds on cAMP Accumulation (inhibition of Forskolin-stimulated cAMP accumulation in CHO cells stably expressing mGluR2)
Assay type: cell-based
Experimental: After the medium was replaced with an L-glutamine free medium, they were cultured for 4 hours, and the supernatant liquid was aspirated. After adding 150 μl of PBS(+)-IBMX (10 mM PBS(-), 1 mM MgC12,1 mM CaCl2, 1 mM IBMX), incubation was conducted at 37° C. under the presence of 5% CO2 for 20 minutes. Once again the supernatant liquid was suctioned off, 60 μl of 10^-5 M Forskolin and PBS (+)-IBMX containing the specimens listed in Table 1 between 10^-10 and 10^-4 M were added, incubation was carried out for 15 minutes at 37° C. under the presence of 5% CO2, and a study was carried out for the inhibitory effect of the agonists on the Forskolin stimulation cAMP accumulation quantity [for control, the conditions were set to Forskolin with no addition of the compounds (Tanabe et al., Neuron, 8, 169-179 (1992))]. The reactions were halted by adding 100 μl of ice-cooled ethanol, the entire quantity of the supernatant liquid was collected in a separate plate, then was dried up at normal temperature with an evaporator, and was kept at -20° C. In the dried-up samples, the quantity of cAMP was measured using a cAMP EIA kit (from the Amasham company). The control value was subtracted from each cAMP quantity.

In the case of `N[C@@]1(C(=O)O)CC[C@H]2[C@H](C(=O)O)[C@H]21` [LY354740, (+)-(1S, 2S, 5R, 6S)-2-aminobicyclo [3.1.0]hexane-2,6-dicarboxylic acid, reference compound], the IC50 is reported as 18.7 nM.
